Data on 117 compounds can be found in PubChem BioAssay AID588511 (Johns Hopkins Ion Channel Center, 2011).

Sequences of proteins named here, by UniProt entry; tags and fusion partners are left off.
UniProt Q8BHY3, whole entry: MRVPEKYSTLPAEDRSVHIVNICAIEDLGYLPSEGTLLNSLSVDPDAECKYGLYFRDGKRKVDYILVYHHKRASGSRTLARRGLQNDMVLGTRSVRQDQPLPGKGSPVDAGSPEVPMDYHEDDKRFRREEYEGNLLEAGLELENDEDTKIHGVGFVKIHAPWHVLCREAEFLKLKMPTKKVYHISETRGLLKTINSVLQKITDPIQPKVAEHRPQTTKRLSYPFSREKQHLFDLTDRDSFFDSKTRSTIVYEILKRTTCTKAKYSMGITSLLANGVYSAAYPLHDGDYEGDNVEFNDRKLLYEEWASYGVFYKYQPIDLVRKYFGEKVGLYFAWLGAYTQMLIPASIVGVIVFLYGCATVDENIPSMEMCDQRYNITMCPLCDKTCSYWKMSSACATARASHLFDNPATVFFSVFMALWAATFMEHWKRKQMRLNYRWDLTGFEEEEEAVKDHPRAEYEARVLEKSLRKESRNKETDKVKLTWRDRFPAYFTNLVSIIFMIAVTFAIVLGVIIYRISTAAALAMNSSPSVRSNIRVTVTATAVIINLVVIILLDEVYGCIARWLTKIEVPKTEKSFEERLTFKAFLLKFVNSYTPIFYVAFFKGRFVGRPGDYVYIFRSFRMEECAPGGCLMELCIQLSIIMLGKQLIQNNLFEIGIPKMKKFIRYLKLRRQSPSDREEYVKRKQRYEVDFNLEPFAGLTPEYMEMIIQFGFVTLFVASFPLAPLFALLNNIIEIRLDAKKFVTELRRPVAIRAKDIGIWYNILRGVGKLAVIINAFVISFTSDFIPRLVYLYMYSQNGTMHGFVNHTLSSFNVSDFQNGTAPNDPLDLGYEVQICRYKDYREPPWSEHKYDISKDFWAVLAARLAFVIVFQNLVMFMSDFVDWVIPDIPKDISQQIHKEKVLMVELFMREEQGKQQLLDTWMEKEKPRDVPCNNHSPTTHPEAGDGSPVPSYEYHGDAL

The list shows a part of the results, in another mix than the full data. Calls of active or inactive are those of the source.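 Rule for the calls: active = ratio plate-corrected score three or more library SD toward inhibition, starting fluorescence score within five deviations; inactive = the rest.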

This test concerns the target Anoctamin-1 (Mus musculus) (UniProt Q8BHY3). Description: TMEM16A chloride channel inhibitors, primary screen, cell-based, HTS (AID 588511). Particulars: HEK293 TMEM16A/YFP iodide influx fluorescence, ionomycin; at 10 µM.
In the case of `CN(C)CCOC(=O)C(O)(c1ccccc1)C1CCCC1` (configuration not stated), the compound was called inactive.
On to `CN1CCCC(OC(=O)C(c2ccccc2)c2ccccc2)C1` (configuration not stated), for which the compound was classed as inactive.
As to `COc1ccc(N/C(=N/P(=O)(N2CCOCC2)N2CCOCC2)N2CCOCC2)cc1`, the call was inactive.
On the same count and under the same terms, next, `O=C(OC1CN2CCC1CC2)C12CC3CC(CC(C3)C1)C2` (configuration not stated): “inactive”; `Cc1cc(=O)[nH]c(N[N+](=O)[O-])n1`: “inactive”; `CCN(CC)CCCOC(=O)C(O)(c1ccccc1)c1ccccc1`: “inactive”.
Still for that read-out and setting: next, `Cc1c2c(nc3ccccc13)SC(C(Cl)Cl)C2` (configuration not stated): “inactive”.
Still for that read-out and setting: next, `COc1ccc2nc(NP(=O)(c3ccccc3)c3ccccc3)sc2c1`: “inactive”; `COc1cc(I)ccc1[As](=O)(O)O`: “inactive”.
As for `COc1ccccc1OP(C)(=O)Nc1ccc(C)cc1` (configuration not stated), the outcome was inactive.
Still for that read-out and setting: to `Cc1ccc(NP(C)(=O)Oc2ccccc2)c(C)c1` (configuration not stated) belongs “inactive”.
On to `CC(C)c1ccc(OP(=O)(Nc2ccccn2)Oc2ccccc2F)cc1` (configuration not stated), for which the outcome was inactive.
On the same count and under the same terms, to `CCOC(=O)c1ccc(NP(C)(=O)Oc2ccccc2)cc1` (configuration not stated) belongs “inactive”.
The same measure, in the same setting: to `ClCCSc1nnc(-c2cccnc2)o1` belongs “inactive”.
For the compound `Cc1cc(C)cc(OP(C)(N)=O)c1` (configuration not stated), the outcome was inactive.
The same measure, in the same setting: to `CCN(CC)C(=S)SC(NC=O)C(Cl)(Cl)Cl` (configuration not stated) belongs “inactive”; to `COc1ccccc1OP(C)(=O)Nc1cc(Cl)ccc1C` (configuration not stated), “inactive”; to `CC(C)NC(=O)NP(=O)(Oc1ccccc1)Oc1ccccc1`, “inactive”.
As for `O=[N+]([O-])c1cc([N+](=O)[O-])c(-c2ccn[nH]2)s1`, the compound was classed as inactive.
The same measure, in the same setting: to `COc1ccc(OP(C)(=O)Nc2cccc(F)c2)cc1` (configuration not stated) belongs “inactive”; to `C[As](=O)(O)c1cccc(C(=O)O)c1`, “inactive”; to `O=[As](O)(c1ccc(O)cc1)c1ccccc1O`, “inactive”.
For `O=[N+]([O-])c1cc([N+](=O)[O-])c(Nc2cccnc2)c([N+](=O)[O-])c1`, the B-score is active: 100.
`Cc1ccc2nc3c(c(C)c2c1)CC(C(Cl)Cl)S3` (configuration not stated): the compound was classed as inactive.
Turning to `O=[N+]([O-])c1ccc2c(c1)C=Nc1ccccc1O2`, the result was inactive.
In the case of `CC(C)(C)c1ccc(OP(C)(=O)Nc2ccc(SC(F)(F)F)cc2)cc1` (configuration not stated), the compound was called inactive.
The same measure, in the same setting: to `Cc1ccc(OP(=O)(Nc2ccc([N+](=O)[O-])cn2)Oc2ccc(C)cc2)cc1` belongs “inactive”; to `Cc1cccc(C)c1OP(C)(N)=O` (configuration not stated), “inactive”; to `CCOC(=O)Nc1cccc([As](=O)(O)O)c1`, “inactive”.
Regarding `CP(=S)(Nn1cnnc1)Oc1ccccc1` (configuration not stated), the result was inactive.
Same read-out and setting: to `CP(=O)(Nc1ccccc1Br)Oc1ccccc1` (configuration not stated) belongs “inactive”; to `O=[N+]([O-])c1ccc(Nc2ccc(Oc3ccc([N+](=O)[O-])cc3[N+](=O)[O-])cc2)c([N+](=O)[O-])c1`, “inactive”; to `O=P(Nc1ccccn1)(c1cccc2ccccc12)c1cccc2ccccc12`, “inactive”.
In the case of `Cc1cc(SC(NC=O)C(Cl)(Cl)Cl)ncn1` (configuration not stated), the result was inactive.
The same measure, in the same setting: next, `COc1ccccc1OP(C)(=O)Nc1ccccc1` (configuration not stated): “inactive”; `CCOC(=O)Nc1ccc([As](=O)(O)O)c(O)c1`: “inactive”; `Cc1cc(SC(NC(=O)c2ccccc2)C(Cl)(Cl)Cl)nc(C(C)C)n1` (configuration not stated): “inactive”.
On the same count and under the same terms, next, `CCOC(=O)c1ccc(NP(C)(=O)Oc2ccc(OC)cc2)cc1` (configuration not stated): “inactive”; `CCOC(=O)c1ccc(NC(=O)C(C)(CCl)SC)cc1` (configuration not stated): “inactive”; `O=[N+]([O-])c1cc([N+](=O)[O-])c(O)c([N+](=O)[O-])c1.c1ccc(Oc2ccncc2)cc1`: “inactive”.
Same read-out and setting: next, `CCOP(C)(=S)SCC(=O)NC(C)C(=O)O` (configuration not stated): “inactive”; `O=C(OC1CN2CCC1CC2)c1cccc([N+](=O)[O-])c1` (configuration not stated): “inactive”.
For `CP(=O)(Nc1ccccn1)Oc1ccc(Cl)cc1` (configuration not stated), the result was inactive.
Still for that read-out and setting: to `CCC(C)N(CC(C)C)C(=S)SC(NC(C)=O)C(Cl)(Cl)Cl` (configuration not stated) belongs “inactive”; to `Cc1cccc(C)c1OP(C)(=O)Nc1ccc(SC(F)(F)F)cc1` (configuration not stated), “inactive”; to `CP(=O)(Nc1ccc(SC(F)(F)F)cc1)Oc1ccc(Cl)cc1` (configuration not stated), “inactive”.
Still for that read-out and setting: to `COP1(=S)c2c(C)nn(CCC#N)c2N=C(c2ccc(F)cc2)N1C` (configuration not stated) belongs “inactive”.
With `CP(=O)(Oc1ccccc1)OC(c1ccccc1)C(F)(F)F` (configuration not stated), the result was inactive.
Same read-out and setting: to `CCc1ccc(OP(C)(=O)N2CCN(c3ccc([N+](=O)[O-])cc3)CC2)cc1` (configuration not stated) belongs “inactive”; to `O=C(COc1ccccc1)OC1CN2CCC1CC2` (configuration not stated), “inactive”.
With `CP(=O)(NC(=O)Nc1ccccc1)Oc1ccccc1` (configuration not stated), the compound was called inactive.
Still for that read-out and setting: to `O=C(Nc1ccncc1[N+](=O)[O-])c1ccc([N+](=O)[O-])cc1[N+](=O)[O-]` belongs “inactive”; to `Cc1cc(C)cc(OP(C)(=O)Nc2ccc(SC(F)(F)F)cc2)c1` (configuration not stated), “inactive”; to `COc1ccccc1CNC(=O)COC(=O)C(O)(c1ccccc1)c1ccccc1`, “inactive”.
On the same count and under the same terms, next, `O=[N+]([O-])c1cc([N+](=O)[O-])c(-c2cnn(-c3ccccc3)c2)c([N+](=O)[O-])c1`: “inactive”.
On the same count and under the same terms, next, `O=[As](O)(c1ccccc1Br)c1ccccc1Br`: “inactive”; `CC1(CBr)Cn2c(nc3ccccc3c2=O)S1` (configuration not stated): “inactive”; `Cc1nc2ccc3ccccc3c2s1.O=[N+]([O-])c1cc([N+](=O)[O-])c(O)c([N+](=O)[O-])c1`: “inactive”.
As for `CC(C)/C=N\N=C(\N)N[N+](=O)[O-]`, the compound was called inactive.
Same read-out and setting: next, `CN(C(=O)Cc1ccc(Cl)c(Cl)c1)[C@@H]1CCCC[C@H]1N1CCCC1`: “inactive”; `CN(CCCl)Cc1cc(Cl)c(NC2=NCCN2)c(Cl)c1`: “inactive”.
In the case of `CCOP(=O)(Nc1ccc(C)cn1)OCC`, the result was inactive.
`O=P1(Nc2ccccn2)COc2ccccc2OC1`: the call was inactive.
`CCC1=CC2Cc3nc4ccc(Cl)cc4c(N)c3C(C1)C2` (configuration not stated): the outcome was inactive.
As to `CCOP(=O)(NC(=NC(C)c1ccccc1)NC(C)c1ccccc1)OCC` (configuration not stated), the compound was classed as inactive.
Take `O=[N+]([O-])c1cc([N+](=O)[O-])c(-n2nnc3ccccc32)c([N+](=O)[O-])c1`: the compound was called inactive.
Still for that read-out and setting: to `Clc1n[nH]nc1-c1nn[nH][15n]1` belongs “inactive”; to `CC(C)(C)C(=O)NC(Sc1ncccn1)C(Cl)(Cl)Cl` (configuration not stated), “inactive”.
Same read-out and setting: next, `O=P1(Nc2ncccn2)COc2ccccc2OC1`: “inactive”; `COc1ccccc1OP(C)(=O)Nc1c(C)cccc1C` (configuration not stated): “inactive”; `CN1CCCCC1COC(=O)C1(O)c2ccccc2CCc2ccccc21` (configuration not stated): “inactive”.
Same read-out and setting: to `O=P1(Nc2ccc(Br)cn2)COc2ccccc2OC1` belongs “inactive”; to `Cc1ccc(OCC(=O)OC2CN3CCC2CC3)cc1` (configuration not stated), “inactive”; to `O=[As](O)(c1cccs1)c1cccs1`, “inactive”.
With `CP(=O)(Nc1ccc(SC(F)(F)F)cc1)Oc1ccccc1` (configuration not stated), the outcome was inactive.
As for `Nc1cccc([As](=O)(O)c2ccccc2)c1`, the compound was classed as inactive.
On to `CCCOc1ccc(NP(C)(=O)Oc2ccc(Cl)cc2)cc1` (configuration not stated), for which the compound was called inactive.
Consider `COc1cc(C2NCCC3(OCCO3)C2(C)C)cc(OC)c1OC.O=[N+]([O-])c1cc([N+](=O)[O-])c(O)c([N+](=O)[O-])c1` (configuration not stated), for which the compound was called inactive.
Same read-out and setting: to `Cc1nn(-c2ccccc2)c2c1P(=O)(N1CCOCC1)N(C)C(c1ccccc1)=N2` (configuration not stated) belongs “inactive”; to `CC1CCC(C(C)C)C(OP(=O)(Nc2ccccn2)c2ccccc2)C1` (configuration not stated), “inactive”.
The same measure, in the same setting: next, `Cc1ccc(C(=O)OC2CN3CCC2CC3)cc1` (configuration not stated): “inactive”; `O=C(/C=C/c1ccccc1)OC1CN2CCC1CC2` (configuration not stated): “inactive”.
Same read-out and setting: next, `O=[N+]([O-])c1cc([N+](=O)[O-])c(Nc2nnnn2CCO)c([N+](=O)[O-])c1`: “inactive”; `CN(C)C1(CNC(=O)c2ccc(S(C)(=O)=O)cc2)CCCCC1`: “inactive”; `CC1=C2N=C(C=C3N=C(C(C)=C4[N-][C@@](C)([C@@H]5N=C1[C@](C)(CCC(=O)NC[C@@H](C)OP(=O)([O-])O[C@H]1[C@@H](O)[C@@H](n6cnc7cc(C)c(C)cc76)O[C@@H]1CO)[C@H]5CC(N)=O)[C@@](C)(CC(N)=O)[C@@H]4CCC(N)=O)[C@@](C)(CC(N)=O)[C@@H]3CCC(N)=O)C(C)(C)[C@@H]2CCC(N)=O.[C-]#N.[Co+3]`: “inactive”.
For `CCOC(=O)C(CC)C1=NC(C)(C)Cc2ccccc21.O=[N+]([O-])c1cc([N+](=O)[O-])c(O)c([N+](=O)[O-])c1` (configuration not stated), the compound was called inactive.
Same read-out and setting: next, `NC(=O)Nc1ccc([As](=O)(O)O)cc1`: “inactive”; `CN(C)C(=O)c1cc([N+](=O)[O-])cc2c1-c1c(cc([N+](=O)[O-])cc1[N+](=O)[O-])C2=O`: “inactive”; `O=[N+]([O-])c1ccc2c(c1)nnn2O`: “inactive”.
With `CN(C(=O)Cc1ccc(Cl)c(Cl)c1)[C@H]1CC[C@@]2(CCCO2)C[C@@H]1N1CCCC1`, the compound was classed as inactive.
On the same count and under the same terms, to `CC1=NCCc2c1[nH]c1ccccc21.O=[N+]([O-])c1cc([N+](=O)[O-])c(O)c([N+](=O)[O-])c1` belongs “inactive”; to `N#CCCN(C(=O)COC(=O)C(O)(c1ccccc1)c1ccccc1)c1ccc(F)cc1`, “inactive”; to `CN(C(=O)Cc1ccccc1)[C@@H]1CC[C@]2(CCCO2)C[C@H]1N1CCCC1`, “inactive”.
Take `CCOP1(=S)c2c(C)nn(CCC#N)c2N=C(c2ccc(F)cc2)N1C` (configuration not stated): the result was inactive.
The same measure, in the same setting: to `CS(=O)(=O)c1cc([N+](=O)[O-])c2no[n+]([O-])c2c1` belongs “inactive”.
As for `CCOP1(=S)c2c(C)nn(CCC#N)c2N=C(c2ccccc2F)N1C` (configuration not stated), the call was inactive.
Still for that read-out and setting: to `O=C(O)c1cccc(Nc2c([N+](=O)[O-])cc([N+](=O)[O-])cc2[N+](=O)[O-])c1` belongs “inactive”; to `O=P(Nc1nccs1)(c1ccccc1)c1nc2ccccc2s1` (configuration not stated), “inactive”; to `O=P(Nc1nccs1)(Oc1ccccc1)Oc1ccccc1`, “inactive”.
On the same count and under the same terms, to `Nc1ccccc1[As](=O)(O)c1ccccc1` belongs “inactive”; to `O=C(O)COc1ccc([As](=O)(O)O)cc1[N+](=O)[O-]`, “inactive”; to `CCCOP(=S)(Nc1nc(N)cc(=O)[nH]1)OCCC`, “inactive”.
Same read-out and setting: to `Cc1ccc(C)c(NP(C)(=O)Oc2ccccc2)c1` (configuration not stated) belongs “inactive”.
Consider `CP(=O)(Nc1cccc(Br)c1)Oc1ccccc1` (configuration not stated), for which the outcome was inactive.
Still for that read-out and setting: next, `Cc1cc(C)cc(OP(C)(=O)Nc2ccccn2)c1` (configuration not stated): “inactive”; `Cc1ccc(NCCc2c([N+](=O)[O-])cc([N+](=O)[O-])cc2[N+](=O)[O-])cc1`: “inactive”.
The same measure, in the same setting: next, `Nc1cccc2c([As](=O)(O)O)cccc12`: “inactive”; `CCOP(=O)(Nc1cccc2ccccc12)OCC`: “inactive”.
Regarding `COc1cc(C(=O)NCC2(N3CCOCC3)CCCCC2)cc(Cl)c1OC(C)C`, the result was inactive.
Regarding `O=[As](O)(O)c1cccnc1`, the call was inactive.
`COc1ccccc1OP(C)(=O)Nc1cccc(Br)c1` (configuration not stated): the compound was called inactive.
Still for that read-out and setting: next, `CS(=O)(=O)c1ccc(Cl)c(NC(=O)COC(=O)C(O)(c2ccccc2)c2ccccc2)c1`: “inactive”.
On the same count and under the same terms, next, `O=C(OC1CN2CCC1CC2)c1ccc(Cl)cc1` (configuration not stated): “inactive”; `CCOC(=O)c1ccc(NP(C)(=O)Oc2cc(C)cc(C)c2)cc1` (configuration not stated): “inactive”; `O=[As](O)(c1cccc(O)c1)c1cccc(O)c1`: “inactive”.
Same read-out and setting: next, `Cc1cccc(OCC(=O)OC2CN3CCC2CC3)c1` (configuration not stated): “inactive”.
For `Cc1cc(C)cc(OP(C)(=O)Nc2ccc(C)cc2C)c1` (configuration not stated), the outcome was inactive.
